Consider 1 compound from US8710224B2, “Heterocyclic compounds as CCR2B antagonists” (AstraZeneca AB, priority 2004, dated 2014).

By UniProt entry, the sequences of proteins in these tests, tags left out.
UniProt P51681, whole entry: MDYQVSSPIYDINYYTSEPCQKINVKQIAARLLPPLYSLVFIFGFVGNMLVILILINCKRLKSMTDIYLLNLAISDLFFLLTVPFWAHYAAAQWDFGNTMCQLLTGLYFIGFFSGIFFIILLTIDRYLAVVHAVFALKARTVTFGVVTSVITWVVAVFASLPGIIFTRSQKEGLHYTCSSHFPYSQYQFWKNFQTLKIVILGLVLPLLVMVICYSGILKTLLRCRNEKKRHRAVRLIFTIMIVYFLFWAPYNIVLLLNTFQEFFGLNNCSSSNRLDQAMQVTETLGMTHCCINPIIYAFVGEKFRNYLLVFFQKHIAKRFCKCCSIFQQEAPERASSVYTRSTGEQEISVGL

The assay addresses T1, recombinant human CCR5 receptor (Homo sapiens, UniProt P51681).
T1 construct: expressed in transfected cells; host or cells: Chinese hamster ovary (CHO) cells; membranes
The assay is described as follows: Radioligand binding assay for inhibition of the binding of MIP-1α. As for the experimental part:
Biological Assay for the Ability of Compounds to Inhibit the Binding of MIP-1α This ability is assessed using an in vitro radioligand binding assay. Membranes are prepared from Chinese hamster ovary cells which express the recombinant human CCR5 receptor. These membranes are incubated with 0.1 nM iodinated MIP-1α, scintillation proximity beads and various concentrations of the compounds of the invention in 96-well plates. The amount of iodinated MIP-1α bound to the receptor is then determined by scintillation counting.

In the case of `O=C(Nc1ccc(Cl)c(Cl)c1)N1CCN(C[C@@H]2CCCN(Cc3ccccc3)C2)CC1` [Example 18, 4-{[(3R)-1-benzylpiperidin-3-yl]methyl}-N-(3,4-dichlorophenyl)piperazine-1-carboxamide], the IC50 (usually the concentration needed to halve the response being measured) is < 10 µM.
